# Measurements published in ChEMBL document CHEMBL5325508, “Discovery and structure-activity relationships (SAR) of a novel class of 2-substituted N-piperidinyl indole-based nociceptin opioid receptor ligands” (2023).
# The chains behind the UniProt entries cited, without tags or fusion partners. Where a name states a change or a piece, a line headed by the entry shows the natural chain unless it says otherwise.
# UniProt P41145: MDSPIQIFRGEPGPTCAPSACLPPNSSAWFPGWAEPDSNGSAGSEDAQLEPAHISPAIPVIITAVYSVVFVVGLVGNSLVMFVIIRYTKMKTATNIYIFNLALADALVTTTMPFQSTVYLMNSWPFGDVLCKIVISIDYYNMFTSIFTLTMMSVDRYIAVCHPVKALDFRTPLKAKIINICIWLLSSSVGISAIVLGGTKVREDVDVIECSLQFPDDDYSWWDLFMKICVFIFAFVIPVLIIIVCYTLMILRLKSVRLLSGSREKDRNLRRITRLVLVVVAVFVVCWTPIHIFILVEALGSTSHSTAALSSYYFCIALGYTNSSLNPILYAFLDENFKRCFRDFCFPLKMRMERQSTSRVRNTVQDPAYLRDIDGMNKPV
# UniProt P35372, whole entry, looked up: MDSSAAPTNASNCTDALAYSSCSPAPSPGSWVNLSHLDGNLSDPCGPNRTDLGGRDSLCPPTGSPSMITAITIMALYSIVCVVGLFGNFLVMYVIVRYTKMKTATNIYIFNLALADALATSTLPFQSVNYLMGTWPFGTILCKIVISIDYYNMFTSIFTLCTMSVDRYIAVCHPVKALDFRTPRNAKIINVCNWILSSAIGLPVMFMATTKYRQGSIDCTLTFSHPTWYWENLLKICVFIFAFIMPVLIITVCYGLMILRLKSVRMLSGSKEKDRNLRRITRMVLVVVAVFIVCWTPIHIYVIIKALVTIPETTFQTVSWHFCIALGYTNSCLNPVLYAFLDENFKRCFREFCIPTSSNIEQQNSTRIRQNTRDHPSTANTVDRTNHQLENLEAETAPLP
# UniProt P41143, whole entry, looked up: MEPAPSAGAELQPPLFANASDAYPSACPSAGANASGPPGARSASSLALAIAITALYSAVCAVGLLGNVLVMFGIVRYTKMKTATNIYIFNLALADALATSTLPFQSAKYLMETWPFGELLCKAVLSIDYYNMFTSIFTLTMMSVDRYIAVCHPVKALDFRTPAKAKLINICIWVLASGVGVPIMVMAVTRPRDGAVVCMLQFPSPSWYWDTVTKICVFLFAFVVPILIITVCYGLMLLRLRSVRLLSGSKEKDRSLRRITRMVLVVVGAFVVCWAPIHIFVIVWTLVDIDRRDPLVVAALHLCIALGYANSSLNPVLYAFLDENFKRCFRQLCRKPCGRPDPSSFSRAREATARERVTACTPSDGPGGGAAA
# UniProt P41146: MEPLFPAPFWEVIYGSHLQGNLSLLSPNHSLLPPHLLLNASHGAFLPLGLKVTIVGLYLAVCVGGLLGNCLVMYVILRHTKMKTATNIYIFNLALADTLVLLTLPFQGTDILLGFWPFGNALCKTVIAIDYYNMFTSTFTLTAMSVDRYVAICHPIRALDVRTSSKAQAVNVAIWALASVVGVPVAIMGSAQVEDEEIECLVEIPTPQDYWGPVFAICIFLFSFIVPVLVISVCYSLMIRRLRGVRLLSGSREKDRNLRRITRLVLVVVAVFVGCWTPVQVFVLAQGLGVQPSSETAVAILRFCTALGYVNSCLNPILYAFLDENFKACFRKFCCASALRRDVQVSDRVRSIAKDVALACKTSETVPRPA
# What was measured:
# [1] = target: Kappa-type opioid receptor (Homo sapiens) (UniProt P41145); test: Agonist activity at human KOP expressed in CHO cells membrane assessed as increase in [35S]GTPgammaS binding incubated for 60 mins relative to U69593
# [2] = target: Mu-type opioid receptor (Homo sapiens) (UniProt P35372); test: Agonist activity at human MOP expressed in CHO cells membrane assessed as increase in [35S]GTPgammaS binding incubated for 60 mins relative to DAMGO
# [3] = target: Delta-type opioid receptor (Homo sapiens) (UniProt P41143); test: Agonist activity at human DOP expressed in CHO cells membrane assessed as increase in [35S]GTPgammaS binding incubated for 60 mins relative to DPDPE
# [4] = target: Nociceptin receptor (Homo sapiens) (UniProt P41146); test: Agonist activity at human NOP expressed in CHO cells membrane assessed as increase in [35S]GTPgammaS binding incubated for 60 mins relative to N/OFQ; settings: filed as agonist
# Homo sapiens = species: Homo sapiens; test: Selectivity ratio of Ki for human NOP to Ki for human MOP
SMILES,Activity [1] [%],Activity [2] [%],Activity ([3]; filed as agonist) [%],Activity [4] [%],Activity ([2]; filed as agonist) [%],Ratio Ki (Homo sapiens),Activity [3] [%]
CC(C)[C@H]1CC[C@@H](N2CCC(n3c(CNS(C)(=O)=O)cc4ccccc43)CC2)CC1,36.1,37.6,48.8,84,–,–,–
CC(C)[C@H]1CC[C@@H](N2CCC(n3c(CNC(=O)c4cccnc4)cc4ccccc43)CC2)CC1,5.4,–,45.7,85.9,44.2,–,–
CC(C)[C@H]1CC[C@@H](N2CCC(n3c(CCO)cc4ccccc43)CC2)CC1,6.7,34.9,–,87.8,–,–,–
CC(C)[C@H]1CC[C@@H](N2CCC(n3c(CN4CCS(=O)(=O)CC4)cc4ccccc43)CC2)CC1,1.3,29.8,–,91.2,–,–,–
CC(C)[C@H]1CC[C@@H](N2CCC(n3c(CCN)cc4ccccc43)CC2)CC1,21.9,39.7,–,102,–,–,–
CC(C)[C@H]1CC[C@@H](N2CCC(n3c(CNC(=O)c4ccc(C(F)(F)F)o4)cc4ccccc43)CC2)CC1,–,34.5,42.1,61.9,–,–,–
CCOC(=O)NCc1cc2ccccc2n1C1CCN([C@H]2CC[C@@H](C(C)C)CC2)CC1,–,–,50.8,96.7,43.5,–,–
CC(C)[C@H]1CC[C@@H](N2CCC(n3ccc4ccccc43)CC2)CC1,–,–,–,–,–,38.4,–
CC(=O)NCc1cc2ccccc2n1C1CCN([C@H]2CC[C@@H](C(C)C)CC2)CC1,–,26.2,45.9,94.1,–,–,–
CC(C)[C@H]1CC[C@@H](N2CCC(n3c(CO)cc4ccccc43)CC2)CC1,1,24.6,–,102,–,–,38.1
